Results reported in BindingDB's records for doi:10.1111/j.1747-0285.2008.00729.x (The Ohio State University, 2008).

By UniProt entry, the sequences of proteins in these tests, tags left out.
UniProt P02550, whole entry, looked up: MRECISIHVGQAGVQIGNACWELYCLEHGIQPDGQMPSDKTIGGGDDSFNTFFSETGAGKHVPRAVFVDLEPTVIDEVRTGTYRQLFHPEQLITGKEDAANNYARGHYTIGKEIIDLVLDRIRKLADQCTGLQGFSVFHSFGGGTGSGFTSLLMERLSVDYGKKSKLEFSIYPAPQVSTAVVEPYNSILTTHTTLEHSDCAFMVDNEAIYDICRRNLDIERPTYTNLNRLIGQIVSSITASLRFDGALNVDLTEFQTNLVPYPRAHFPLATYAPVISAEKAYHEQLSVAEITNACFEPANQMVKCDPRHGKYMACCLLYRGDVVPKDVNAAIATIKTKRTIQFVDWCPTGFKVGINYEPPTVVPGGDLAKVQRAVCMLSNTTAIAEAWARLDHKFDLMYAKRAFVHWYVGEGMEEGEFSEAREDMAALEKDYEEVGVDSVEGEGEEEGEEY

What follows are compounds tested against Tubulin alpha-1A chain (Sus scrofa, UniProt P02550).

In order of falling IC50:
1. CCN(CC)S(=O)(=O)c1ccc(NC(=O)c2ccccc2SC)cc1 [Chembridge No 7960631, Class 1, 10]  68 µM
2. CCOc1cccc(C(=O)Nc2ccc(S(=O)(=O)N3CCCC3)cc2)c1 [Chembridge No 7946770, Class 1, 9]  67 µM
3. COc1cc([C@@H]2c3cc4c(cc3[C@H](O)[C@H]3COC(=O)[C@H]23)OCO4)cc(OC)c1OC [podophyllotoxin]  1.4 µM
